Assay [1] has as its target GLP-1 receptor endogenously expressed on RINm5F cells (rat islet-cell tumor line) (rat) (UniProt P32301). In words: cell-based or functional assay.
Assay [2] has as its target glucagon receptor endogenously expressed on RINm5F cells (rat) (UniProt P30082). In words: cell-based or functional assay.

In the case of “Exendin 4 (from UniProt P26349) (peptide)”, the EC50 of cAMP production in RINm5F cells in assay [1] came out at 0.5 nM.

Substance “glucagon (from UniProt P01275 53-81) (peptide)” registered an EC50 of cAMP production (BRET, RG-cAMP sensor) in RINm5F cells in assay [2] of 43 nM.

The record behind these values is US20160313251A1.
